# Target: T1, human GlxI (Homo sapiens, UniProt Q04760)
# T1 construct: hGlxI from human erythrocytes; from tissue; host or cells: human erythrocytes
# T1 sequence (Q04760 2-184 limits assumed): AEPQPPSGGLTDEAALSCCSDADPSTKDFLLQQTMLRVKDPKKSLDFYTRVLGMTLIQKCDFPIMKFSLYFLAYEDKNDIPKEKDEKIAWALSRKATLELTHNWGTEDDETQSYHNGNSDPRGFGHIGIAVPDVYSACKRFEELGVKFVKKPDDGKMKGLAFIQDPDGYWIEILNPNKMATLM
# Assay: Competitive inhibition constants (Kis) with human GlxI
# Format: biochemical
# Experimental: Competitive inhibition constants (Kis) of bivalent and monovalent enzyme inhibitors with human GlxI or yeast GlxI (yGlxI) were obtained from the change in the initial rates of product formation at various concentrations of the substrate in the presence or absence of the inhibitor. To a 1 ml cuvette containing 50 mM sodium phosphate buffer, pH 7.0, 0.5 mM EDTA, 25° C. and different concentrations of thiohemiacetal substrates with fixed concentrations of inhibitor was added approximately 0.02 U of enzyme. The initial rates of product formation were followed on the basis of the increase in absorbancy at 240 nm. Inhibition constants were obtained by fitting the initial rate data to the equation for competitive inhibition.
substance,measurement,value
"N—(O-propanoyl tetraethyleneglycolamine O,O′-dipropylamine diethyleneglycol bis(suberic acid) S—(N-p-bromo-phenyl-N-hydroxycarbamoyl)glutathione [polyBHG2-62]",Ki,1 nM
